According to patent US20220356226A1 (UNIVERSIDAD DEL PA S VASCO EUSKAL HERRIKO UNIBERTSITATEA, published 2022):

Target: T1, amyloid β peptide […]
T1 construct: domain: amyloid β peptide […]; also called Aβ […]; Aβ peptide ([…])
Experiment: GST pull-down on Glutathione-Sepharose, Western blot with anti-6E10
Method: In vitro binding experiments were performed as described by Zugaza et al., (J. Biol. Chem. 2002 277(47):45377-45392). The Glutathione-Sepharose matrices loaded with 500 ng of the fusion proteins (GST-Rs, GST-Td, GST-Rw, GST-Rw) and 500 ng GST0 (as a control) were incubated with 100 pmol of the amyloid β peptide 1-42 in binding buffer (50 nM Tris-HCl pH 7.5, 150 mM NaCl). The proteins were eluted from the matrix by adding Laemmli buffer, and they were separated by SDS-PAGE and analyzed by Western blot, with the immunoreactive bands being visualized with an amyloid β peptide 1-42-specific (anti-6E10) antibody, followed by treatment with ECL (General Electric Healthcare).

B1: GST0 (GST without any additional peptide, negative control) (other, UniProt P08515 1-218, looked up)
chain: MSPILGYWKIKGLVQPTRLLLEYLEEKYEEHLYERDEGDKWRNKKFELGLEFPNLPYYIDGDVKLTQSMAIIRYIADKHNMLGGCPKERAEISMLEGAVLDIRYGVSRIAYSKDFETLKVDFLSKLPEMLKMFEDRLCHKTYLNGDHVTHPDFMLYDALDVVLYMDPMCLDAFPKLVCFKKRIEAIPQIDKYLKSSKYIAWPLQGWQATFGGGDHPPK
notes: Negative control in the pull-down; also called GSTO; control peptide (GST0)
binding result: no binding
